# Read-outs that look alike come from different tables or passages of the source.
# Protein sequences, listed by entry. Tags and fused reporters are not part of them. Residues count along the entry.
# UniProt O60896, 24-148: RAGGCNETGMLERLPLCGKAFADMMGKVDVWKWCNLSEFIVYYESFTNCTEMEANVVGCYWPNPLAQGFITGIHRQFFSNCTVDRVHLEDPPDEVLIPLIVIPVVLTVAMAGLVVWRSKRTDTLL
# Key:
# [1] = target: T1, human amylin 3(a) receptor (human calcitonin receptor + RAMP-3) in BHK570 cells (Homo sapiens, UniProt O60896+P30988); assay: ASSAY (II)a functional assay, human amylin receptor (CRE luciferase); assay type: cell-based; details: for EC50: human amylin receptor functional potency, assay (II), read-out: hAmylin-R funct. EC50
# T1 construct: expressed in transfected cells
# Excerpt: (§1) 1. Luciferase Assay Outline
# (§2) Activation of calcitonin and amylin (coexpression of calcitonin receptor and receptor activity modifying proteins (RAMP)) receptors lead to increased intracellular concentrations of cAMP. Consequently, transcription is activated by promoters containing multiple copies of the cAMP response element (CRE). It is thus possible to measure amylin activity by the use of a CRE luciferase reporter gene introduced into BHK cells also expressing calcitonin or amylin receptors.
# (§3) 2. Construction of Calcitonin (a)- and Amylin 3(a)-Receptor/CRE-Luc Cell Line.
# (§4) The cell line was further transfected with RAMP-3, using standard methods. This turns the calcitonin receptor into an amylin 3(a) receptor. Methotrexate, Neomycin, and Hygromycin are selection markers for luciferase, the calcitonin receptor, and RAMP-3, respectively.
# (§5) To perform activity assays, BHK calcitonin (a) receptor- or amylin 3(a)-receptor/CRE-luc cells were seeded in white 96 well culture plates at a density of about 20.000 cells/well. […] After incubation overnight at 37° C. and 5% CO2, the growth medium was replaced by 50 μl/well assay medium (DMEM (without phenol red), Glutamax™, 10% FBS, and 10 mM Hepes, pH 7.4). Further, 50 μl/well of standard or sample in assay buffer were added. After 3 hours incubation at 37° C. and 5% CO2, the assay medium with standard or sample were removed and replaced by 100 μl/well PBS. Further, 100 μl/well LucLite™ was added. The plates were sealed and incubated at room temperature for 30 minutes. Finally, luminescence was measured on a TopCounter (Packard) in SPC (single photon counting) mode.
# [2] = target: T2, human calcitonin (a) receptor in BHK570 cells (Homo sapiens, UniProt P30988); assay: ASSAY (II)a functional assay, human calcitonin receptor (CRE luciferase); assay type: cell-based; details: read-out: hCTR funct. EC50
# T2 construct: expressed in transfected cells
# T2 sequence (P30988 25-474): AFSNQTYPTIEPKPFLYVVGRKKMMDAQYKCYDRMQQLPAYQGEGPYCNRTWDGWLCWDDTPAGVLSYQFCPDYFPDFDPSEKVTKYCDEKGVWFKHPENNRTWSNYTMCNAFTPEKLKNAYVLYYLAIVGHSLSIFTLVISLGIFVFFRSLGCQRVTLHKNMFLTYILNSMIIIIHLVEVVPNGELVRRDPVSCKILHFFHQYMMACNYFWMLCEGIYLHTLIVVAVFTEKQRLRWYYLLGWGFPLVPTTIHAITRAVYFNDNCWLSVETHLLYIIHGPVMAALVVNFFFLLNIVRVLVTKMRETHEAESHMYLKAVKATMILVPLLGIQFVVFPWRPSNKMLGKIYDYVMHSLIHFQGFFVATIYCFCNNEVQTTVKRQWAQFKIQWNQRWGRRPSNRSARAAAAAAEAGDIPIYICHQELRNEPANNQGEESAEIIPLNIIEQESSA
# Excerpt: as §1, §2, §3, §4
# as §5, with “After 3 hours incubation at 37° C. and 5% CO2, the assay medium with standard or sample were removed and replaced by 100 μl/well PBS. Further, 100 μl/well LucLite™ was added. The plates were sealed and incubated at room temperature for 30 minutes.” left out
# [3] = ASSAY (IV) determination of solubility; assay type: physicochemical
# Description: Assay (IV)—Determination of Solubility
# The polypeptide was dissolved in water at −500 nmol/ml and mixed 1:1 with a series of buffers (100 mM glycylglycine pH 3.0, 100 mM glycylglycine pH 4.0, 100 mM glycylglycine pH 5.0, 100 mM bistrispropane pH 6.0, 100 mM bistrispropane pH 6.5, 100 mM bistrispropane pH 7.0, 100 mM bistrispropane pH 7.5, 100 mM bistrispropane pH 8.0). After 18 hours at room temperature the samples were centrifuged and the polypeptide concentration determined by UPLC.
# [4] = target: T3, rat amylin receptor (rat calcitonin receptor + rat RAMP 3) (Rattus norvegicus, UniProt P32214+Q9JJ73); assay: ASSAY (VI) binding to the rat amylin receptor; details: for IC50: binding to rat amylin receptor, read-out: rAmylin-R bind IC50
# T3 construct: expressed in transfected cells; host or cells: BHK tk'ts 13 (transient, FuGENE 6), membranes
# T3 sequence (P32214 25-479 isoform P32214-2 limits assumed): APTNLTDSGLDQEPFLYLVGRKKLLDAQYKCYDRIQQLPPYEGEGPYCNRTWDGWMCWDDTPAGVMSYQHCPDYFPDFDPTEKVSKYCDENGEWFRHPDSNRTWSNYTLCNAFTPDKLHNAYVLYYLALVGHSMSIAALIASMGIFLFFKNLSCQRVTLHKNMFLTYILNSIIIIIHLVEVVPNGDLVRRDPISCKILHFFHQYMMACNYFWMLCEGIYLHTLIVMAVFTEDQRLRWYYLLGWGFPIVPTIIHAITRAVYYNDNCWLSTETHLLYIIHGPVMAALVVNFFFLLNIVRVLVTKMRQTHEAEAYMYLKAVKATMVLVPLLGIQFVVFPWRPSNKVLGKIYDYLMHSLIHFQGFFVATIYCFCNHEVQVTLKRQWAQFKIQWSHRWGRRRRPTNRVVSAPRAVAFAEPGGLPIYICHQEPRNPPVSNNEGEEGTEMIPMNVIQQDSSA
# T3 sequence (Q9JJ73 23-147 partner): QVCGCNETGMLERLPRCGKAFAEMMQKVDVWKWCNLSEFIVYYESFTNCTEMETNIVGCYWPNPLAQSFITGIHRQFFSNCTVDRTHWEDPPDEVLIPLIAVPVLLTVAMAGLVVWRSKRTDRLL
# Description: Assay (VI)—Determination of the Binding to the Rat Amylin Receptor […] The BHK tk′ts 13 cells were transiently transfected with rat calcitonin receptor using FuGENE® 6 (Roche), according to the manufacturer's recommendations. […] Approximately 48 hours after transfection, the cells were harvested and membranes were prepared.
# rat calcitonin receptor = target: T4, rat calcitonin receptor (Rattus norvegicus, UniProt P32214); assay: ASSAY (VIII) binding to the rat calcitonin receptor; details: Table 7, read-out: rCTR bind IC50
# T4 construct: expressed in transfected cells; host or cells: BHK tk'ts 13 (transient, FuGENE 6), membranes
# T4 sequence (P32214 25-479 isoform P32214-2 limits assumed): T3 sequence (P32214 25-479 isoform P32214-2 limits assumed)
# Description: Assay (VIII)—Determination of Binding to the Rat Calcitonin Receptor
# The BHK tk′ts 13 cells were transiently transfected with rat calcitonin receptor using FuGENE® 6 (Roche), according to the manufacturer's recommendations. Cells were grown in DMEM with 10% FBS and 1% Pen/Strep. Approximately 48 hours after transfection, the cells were harvested and membranes were prepared.
# [5] = hCTR funct. EC50 divided by hAmylin-R funct. EC50
# [6] = human functional selectivity: hCTR funct. EC50 / hAmylin-R funct. EC50
# [7] = bistrispropane buffer, pH 6.5, read-out: Solubility pH 6.5 Concentration
# [8] = bistrispropane buffer, pH 7.5, read-out: Solubility pH 7.5 Concentration
# [9] = bistrispropane buffer, pH 6.0, read-out: Solubility pH 6.0 Concentration
# [10] = bistrispropane buffer, pH 7.0, read-out: Solubility pH 7.0 Concentration
# [11] = bistrispropane buffer, pH 8.0, read-out: Solubility pH 8.0 Concentration
# [12] = glycylglycine buffer, pH 3.0, read-out: Solubility pH 3.0 Concentration
# [13] = glycylglycine buffer, pH 4.0, read-out: Solubility pH 4.0 Concentration
# [14] = glycylglycine buffer, pH 5.0, read-out: Solubility pH 5.0 Concentration
# [15] = Table 7, rat binding selectivity, rCTR IC50 / rAmylin-R IC50
# [16] = Table 7a (preferred compounds), rat binding selectivity, rCTR IC50 / rAmylin-R IC50
# [17] = ratio of rCTR bind IC50 to rAmylin-R bind IC50
Structure (SMILES),Ratio hCT/hAmylin funct. ([1]; hCTR funct. EC50 / hAmylin-R funct. EC50),"Ratio hCT/hAmylin funct. [1, 5]",EC50 [1] [nM],"Ratio hCT/hAmylin funct. [1, 6]",EC50 [2] [nM],"solubility at 18 h [3, 7] [µM]","solubility at 18 h [3, 8] [µM]","solubility at 18 h [3, 9] [µM]","solubility at 18 h [3, 10] [µM]","solubility at 18 h [3, 11] [µM]","solubility at 18 h [3, 12] [µM]","solubility at 18 h [3, 13] [µM]","solubility at 18 h [3, 14] [µM]",IC50 ([4]; Table 7) [nM],"Ratio rCT/rAmylin binding [4, 15]","Ratio rCT/rAmylin binding [4, 16]","Ratio rCT/rAmylin binding [4, 17]",IC50 (rat calcitonin receptor) [nM],Ratio hCT/hAmylin funct. ([1]; hCTR funct. EC50 over hAmylin-R funct. EC50)
CC[C@H](C)[C@H](NC(=O)[C@H](C)NC(=O)CNC(=O)[C@H](Cc1ccccc1)NC(=O)[C@H](CC(N)=O)NC(=O)[C@@H]1CCCN1C(=O)[C@H](CO)NC(=O)[C@H](CO)NC(=O)[C@H](Cc1c[nH]cn1)NC(=O)[C@H](CCCNC(=N)N)NC(=O)[C@H](CC(C)C)NC(=O)[C@H](Cc1ccccc1)NC(=O)[C@H](CC(N)=O)NC(=O)[C@H](C)NC(=O)[C@H](CC(C)C)NC(=O)[C@H](CCCNC(=N)N)NC(=O)[C@H](CCC(N)=O)NC(=O)[C@@H](NC(=O)[C@H](C)NC(=O)[C@@H]1CSSC[C@H](NC(=O)[C@H](CCCCN)NC(=O)CC[C@H](NC(=O)CCCCCCCCCCCCCCCCCCC(=O)O)C(=O)O)C(=O)N[C@@H](CC(N)=O)C(=O)N[C@@H]([C@@H](C)O)C(=O)N[C@@H](C)C(=O)N[C@@H]([C@@H](C)O)C(=O)N1)[C@@H](C)O)C(=O)N1CCC[C@H]1C(=O)N[C@@H](CO)C(=O)N[C@@H](CO)C(=O)N[C@H](C(=O)N[C@@H](CC(N)=O)C(=O)N[C@H](C(=O)NCC(=O)N[C@@H](CO)C(=O)N[C@@H](CC(N)=O)C(=O)N[C@H](C(=O)N[C@@H](Cc1ccc(O)cc1)C(N)=O)[C@@H](C)O)C(C)C)[C@@H](C)O [Example 21],4.1,4.1,0.148,4.1,0.611,≥ 200,≥ 200,≥ 200,≥ 200,195,≥ 200,≥ 200,≥ 200,1.48,18.8,18.8,18.8,27.9,
CC[C@H](C)[C@H](NC(=O)[C@H](C)NC(=O)CNC(=O)[C@H](Cc1ccccc1)NC(=O)[C@H](CC(N)=O)NC(=O)[C@@H]1CCCN1C(=O)[C@H](CO)NC(=O)[C@H](CO)NC(=O)[C@H](Cc1c[nH]cn1)NC(=O)[C@H](CCCNC(=N)N)NC(=O)[C@H](CC(C)C)NC(=O)[C@H](Cc1ccccc1)NC(=O)[C@H](CC(N)=O)NC(=O)[C@H](C)NC(=O)[C@H](CC(C)C)NC(=O)[C@H](CCCNC(=N)N)NC(=O)[C@H](CCC(N)=O)NC(=O)[C@@H](NC(=O)[C@H](C)NC(=O)[C@@H]1CSSC[C@H](NC(=O)[C@@H](N)CCCCNC(=O)CCCCCCCCCCCCCCCCCCC(=O)O)C(=O)N[C@@H](CC(N)=O)C(=O)N[C@@H]([C@@H](C)O)C(=O)N[C@@H](C)C(=O)N[C@@H]([C@@H](C)O)C(=O)N1)[C@@H](C)O)C(=O)N1CCC[C@H]1C(=O)N[C@@H](CO)C(=O)N[C@@H](CO)C(=O)N[C@H](C(=O)N[C@@H](CC(N)=O)C(=O)N[C@H](C(=O)NCC(=O)N[C@@H](CO)C(=O)N[C@@H](CC(N)=O)C(=O)N[C@H](C(=O)N[C@@H](Cc1ccc(O)cc1)C(N)=O)[C@@H](C)O)C(C)C)[C@@H](C)O [Example 42],,13.5,0.146,13.5,1.98,≥ 200,84,≥ 200,163,65,≥ 200,≥ 200,≥ 200,0.603,25.4,25.4,25.4,15.3,13.5
